Screening results as filed in PubChem BioAssay.
Shown are actives, neighbours in structure and some others; about 0.48% of the full set was active somewhere.
EPAC1 ag: qHTS for Agonist of cAMP-regulated guanine nucleotide exchange factor 3 (EPAC1): primary screen. EPAC1 agonist qHTS, biochemical assay; response scale: 100% = response to 6.5 mM cAMP. Rap guanine nucleotide exchange factor 3 (Homo sapiens), O95398. Potency, µM (series often up to 154 µM), hits mostly activators. 0.073% of 360,000 active; also: nearly all actives have a fitted effect of over 60% in size
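EPAC1 100 nM, Rap1B–BODIPY-GDP 250 nM, unlabeled GDP 50 uM; compound titration; 5 min RT; kinetic read ex480/em540 at 5-min intervals ×30 min; data normalized to 6.5 mM cAMP agonist control.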
Rango release inh: qHTS Assay for Inhibitors of RanGTP induced Rango (Ran-regulated importin-beta cargo) - Importin beta complex dissociation; Snurportin-1 (Homo sapiens) + GTP-binding nuclear protein Ran (Homo sapiens) + Importin …; Biochemical FRET Rango-importin beta, RanGTP-induced dissociation; Potency, µM (series often up to 46.1 µM); 0.071% of 340,000 active; calls by dose curve; also: nearly all actives have a fitted effect of over 45% in size
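Compounds preincubate 5 min with complex of recombinant Rango and importin beta in PBS with 1 mM DTT. Ran (0.6 uM) loaded with 2 mM GTP plus 0.2 uM RCC1 starts dissociation; FRET is recorded 45 min later.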
Rango-impB inh: qHTS Assay for Inhibitors of Rango (Ran-regulated importin-beta cargo) - Importin beta complex formation. Potency, µM (highest dose often 92.2 µM). AID 540263, 2011. Rango CFP/YFP FRET sensor + importin beta, 45 min. Importin subunit beta-1 (Homo sapiens), Q14974. 0.031% of 340,000 active; calls by dose curve; also: nearly all actives have a fitted effect of over 15% in size
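Inhibition scored from the CFP 486 nm/YFP 530 nm FRET ratio 45 min after adding 0.125 microM importin beta to 50 nM Rango biosensor preincubated 5 min with compound (room temperature, PBS with DTT, Tween-20, BSA). No-importin wells as positive control.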
EPAC2 antagonist: qHTS for Antagonist of cAMP-regulated guanine nucleotide exchange factor 2 (EPAC2): primary screen. Rap guanine nucleotide exchange factor 4 (Homo sapiens), Q8WZA2. 0.18% of 360,000 active. Potency, µM (doses to about 114 µM), actives largely listed as inhibitors. EPAC2 GEF exchange of Rap1B-BODIPY-GDP, fluorescence. AID 720708, 2013; also: nearly all actives have a fitted effect of over 45% in size
EPAC2 ag: qHTS for Agonist of cAMP-regulated guanine nucleotide exchange factor 4 (EPAC2): primary screen; EPAC2 activation, biochemical qHTS; response scale: 100% = 6.5 mM cAMP response; Potency, µM (series often up to 154 µM), actives largely listed as activators; 0.079% of 360,000 active; AID 720711, 2013; Rap guanine nucleotide exchange factor 4 (Homo sapiens), Q8WZA2; also: nearly all actives have a fitted effect of over 50% in size
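Nucleotide exchange monitored as fluorescence drop when BODIPY-GDP leaves Rap1B. Reaction: 100 nM EPAC2, 250 nM RAP1B-BODIPY-GDP, 50 uM GDP, room temperature, kinetic read over 30 min. Activity expressed relative to 6.5 mM cAMP.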
EPAC1 antag: qHTS for Antagonist of cAMP-regulated guanine nucleotide exchange factor 3 (EPAC1): primary screen; Rap guanine nucleotide exchange factor 3 (Homo sapiens), O95398; EPAC1 GEF assay, Rap1b-BODIPY-GDP exchange fluorescence; Potency, µM (highest dose often 115 µM), most hits filed as inhibitors; 0.14% of 360,000 active; AID 720709, 2013; also: nearly all actives have a fitted effect of over 50% in size
A number is an active result; n = inactive; u = inconclusive; x = no result; ! = not confirmed by another sample. Unless noted, calls follow the shape of the dose curve; as a rule, active = well fitted curve in the direction sought with a large enough effect; inconclusive = small, poorly fitted or top-dose-only effect, or another doubt; inactive = no such curve, though single readings can be large; an effect the other way counts as inactive or inconclusive.

Chains of the proteins cited; added tags and fusions are not shown.
Importin subunit beta-1 (Homo sapiens), Q14974, UniProt Q14974, whole entry, looked up: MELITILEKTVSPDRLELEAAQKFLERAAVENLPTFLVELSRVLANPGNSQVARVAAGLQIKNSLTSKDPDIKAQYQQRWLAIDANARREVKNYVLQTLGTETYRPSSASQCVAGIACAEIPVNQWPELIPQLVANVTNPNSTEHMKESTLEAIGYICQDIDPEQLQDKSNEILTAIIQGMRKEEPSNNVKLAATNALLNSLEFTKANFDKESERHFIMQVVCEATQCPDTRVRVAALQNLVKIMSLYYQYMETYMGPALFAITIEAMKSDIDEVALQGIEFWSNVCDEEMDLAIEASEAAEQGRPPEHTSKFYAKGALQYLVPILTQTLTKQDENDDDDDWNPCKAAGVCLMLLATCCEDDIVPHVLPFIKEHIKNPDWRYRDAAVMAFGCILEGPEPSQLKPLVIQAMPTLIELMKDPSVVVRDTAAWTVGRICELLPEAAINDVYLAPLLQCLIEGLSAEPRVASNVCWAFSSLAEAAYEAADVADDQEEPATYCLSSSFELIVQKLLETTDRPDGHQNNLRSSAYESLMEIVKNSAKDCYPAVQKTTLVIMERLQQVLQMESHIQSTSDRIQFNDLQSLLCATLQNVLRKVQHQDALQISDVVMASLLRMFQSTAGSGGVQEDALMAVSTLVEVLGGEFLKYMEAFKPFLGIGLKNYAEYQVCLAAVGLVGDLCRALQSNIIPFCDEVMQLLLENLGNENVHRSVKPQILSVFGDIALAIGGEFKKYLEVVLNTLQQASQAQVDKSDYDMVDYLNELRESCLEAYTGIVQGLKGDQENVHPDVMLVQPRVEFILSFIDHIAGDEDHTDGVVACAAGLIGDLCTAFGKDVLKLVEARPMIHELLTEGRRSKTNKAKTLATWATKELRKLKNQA

SMILES | EPAC1 ag | Rango release inh | Rango-impB inh | EPAC2 antagonist | EPAC2 ag | EPAC1 antag
O=C1C=CC(=O)C2C1C1(Cl)C(Cl)=C(Cl)C2(Cl)C1(Cl)Cl (stereo unspecified) | n | n | n | 56µM | n | n
Cc1cc(C)cc(N2C(=O)/C(=C\c3ccc(N4CCN(C)CC4)o3)C(=O)NC2=S)c1 | u | u | 52µM | n | n | n
C=CCN1C(=O)/C(=C/c2ccc(N3CCOCC3)o2)C(=O)NC1=S | n | n | 58µM | n | n | n
O=C(O)CCCCC1SCC2NC(=O)NC21 (stereo unspecified) | n | n | u | n | n | n
O=C(C[C@H]1C=C[C@H](NC(=O)Nc2ccccc2F)[C@@H](CO)O1)NCc1ccc(-c2ccccc2)cc1 | n | x | x | u | n | n
CCCCn1c(NS(=O)(=O)c2ccc(C)cc2)c(C(=O)OCC)c2nc3ccccc3nc21 | 112µM | u | u | n | n | u
Oc1ccc(Cl)cc1Cc1cc(Cl)ccc1O | n | n | n | 79µM | n | n
Oc1ccc(Cl)cc1Cc1ccccc1 | n | n | n | u | n | n
CC(C)N1C(=O)/C(=C/C=C/c2ccco2)C(=O)N(Cc2ccco2)C1=O | n | n | u | n | n | u
COc1ccc(/C=C2/C(=O)N(Cc3ccco3)C(=O)N(C(C)C)C2=O)cc1 | n | n | u | n | n | 32µM
Cc1ccc(-c2[nH]c(=S)[nH]c(=O)c2C#N)cc1 | n | n | n | n | n | u
CCn1c(O)c(C=Nc2ccc(N3CCOCC3)cc2)c(=O)n(CC)c1=S | n | u | u | n | 100µM | n
O=[N+]([O-])c1cccc(NP(=O)(Oc2ccccc2)Oc2ccccc2)c1 | n | n | n | 25µM | n | n
C[C@@H]1C(=O)O[C@H]2CC34[C@H]5C[C@@H](C(C)(C)C)[C@]36[C@@H](OC(=O)[C@@H]6O)O[C@@]4(C(=O)O5)[C@]21O (stereo partly specified) | n | n | n | n | n | n
Cc1ccc(N2C(=O)NC(=O)/C(=C\c3cc(C)n(-c4sc5c(c4C#N)CCCC5)c3C)C2=O)cc1 | n | n | n | u | n | 18µM
CCN1C(=O)NC(=O)/C(=C/c2cc(C)n(-c3sc(C)c(C)c3C#N)c2C)C1=O | n | n | n | n | n | n
O=C(OC1CCN(CCCl)CC1)C(c1ccccc1)c1ccccc1 | n | n | n | 13µM | n | n
C[N+]1(C)[C@@H]2CC[C@H]1CC(OC(=O)C(c1ccccc1)c1ccccc1)C2 (stereo partly specified) | n | n | n | n | n | n
CN1C(=O)/C(=C/c2cccn2-c2ccc3ccccc3c2)C(=O)NC1=S | n | n | u | n | n | 32µM
COC1C(C)OC(OC2CC(C)(O)Cc3cc4c(c(O)c32)C(=O)c2c(O)cc3c(c2C4=O)OC2OC3(C)C(O)C(N(C)C)C2O)C(OC)C1(C)OC (stereo unspecified) | 100µM | u | u | n | n | n
CCOC(=O)c1cc(CC)sc1/N=C/c1c(O)[nH]c(=S)[nH]c1=O | n | n | u | n | 63µM | n
CCOC(=O)c1c(/N=C/C2C(=O)NC(=O)NC2=O)sc2c1CCC2 | n | u | u | n | n | n
CCOC(=O)c1cc(CC)sc1/N=C/C1C(=O)NC(=S)NC1=O | n | n | u | n | 89µM | n
Cn1cccc1/C=C1\C(=O)NC(=O)N(Cc2ccccc2Cl)C1=O | n | n | n | n | n | 79µM
CCCCCCCCCCCCCCCC[n+]1ccccc1 | n | u | 65µM! | u | n | n
SMILES | EPAC1 ag | Rango release inh | Rango-impB inh | EPAC2 antagonist | EPAC2 ag | EPAC1 antag
CCCCCCC[n+]1ccc(-c2cc[n+](CCCCCCC)cc2)cc1 | n | n | n | n | n | n
FC(F)(F)c1cccc(CC2CN(Cc3ccccc3)Cc3ccccc3N2c2cc(Cl)cc(Cl)c2)c1 (stereo unspecified) | n | x | x | n | n | n
CC(C)CCOP(=O)(c1ccc(N(C)C)cc1)C(O)c1c(Cl)cccc1Cl (stereo unspecified) | n | n | n | u | n | u
CC1=NCCc2c1[nH]c1cc(O)ccc21 | 112µM | u | u | n | 100µM | n
O=c1[nH]c(=O)n(-c2ccccc2)c(O)c1/C=C/C=Nc1ccccc1 | u | u | u | n | n | n
COc1ccc(-n2c(O)c(/C=C/C=Nc3ccccc3)c(=O)[nH]c2=O)cc1 | 100µM | u | u | n | u | n
COc1ccc(C/C(=N\OC(C)=O)c2ccc(OC)cc2)cc1 | n | n | n | u | n | n
C=CCn1c(O)c(C=Nc2ccc(Cc3ccncc3)cc2)c(=O)[nH]c1=S | n | n | u | n | n | n
S=C(Nc1ccccc1)Nc1ccccn1 | 89µM | x | x | n | n | n
CC(C)(C)c1csc(NC(=O)Nc2ccccc2)n1 | n | n | n | n | n | u
CC(C)CS(=O)(=O)C1=NN2C(=N)/C(=C\c3ccc(OC(=O)c4ccco4)cc3)C(=O)N=C2S1 | n | 26µM | u | n | n | u
Cc1ccc(S(=O)(=O)N(C)C[C@H]2Oc3c(NC(=O)Nc4cccc5ccccc45)cccc3C(=O)N([C@@H](C)CO)C[C@@H]2C)cc1 | n | n | n | n | n | n
COc1ccc(N2C(=O)/C(=C/c3cccs3)C(=O)NC2=S)cc1 | n | n | u | n | n | n
COc1ccc(N2C(=O)/C(=C/C=C/c3ccccc3[N+](=O)[O-])C(=O)NC2=S)cc1 | n | n | n | n | n | 45µM
CC(C)CC[C@@H](O)[C@](C)(O)C1CC[C@@]2(O)C3=CC(=O)[C@@H]4C[C@@H](O)[C@@H](O)C[C@]4(C)C3CC[C@]12C (stereo partly specified) | n | n | n | n | n | n
COc1cc(C(c2c(C)[nH]n(-c3ccccc3)c2=O)c2c(C)[nH]n(-c3ccccc3)c2=O)cc(OC)c1OC | n | n | n | n | n | n
